Measurements reported in patent US3994974A, “α-Aminomethylbenzyl alcohol derivatives” (Yamanouchi Pharmaceutical Co., Ltd., priority 1972, dated 1976).
Counter-ions that a name gives are not always drawn.

Tested on: β1 /β2
Experiment: Selectivity (ratio of β1/β2), ED50bpm vs. ED50 in anesthetized dogs
Assay type: in vivo, Mongrel dogs

COc1ccc(CC(C)NCC(O)c2ccc(O)c(NC=O)c2)cc1 (single isomer, unassigned) [Example 22, 3-formylamino-4-hydroxy-α-[N-(1-methyl-2-p-methoxyphenylethyl)aminomethyl]benzyl alcohol [A] . 1/2 fumarate]
Selectivity (ratio of β1/β2): 18.9
